Properties, as collected for the OPERA models

Values as listed in the OPERA 2.9 repository of K. Mansouri.

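These are experimental values that the OPERA curators gathered from public databases to train and test their QSAR models. The files give a single number for a compound and property, which may rest on several reports. Conditions of the individual experiments are not part of the data. A value may pool stereoisomers or salt forms, and the file does not say which form was measured. Unmarked limits or estimates from the upstream databases cannot be ruled out.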

The melting point is given in degrees Celsius.
The boiling point refers to atmospheric pressure (760 mmHg), by the definition of the set.
logP is the log10 of the octanol-water partition coefficient; higher is more lipophilic.
Water solubility is log10 of mol/L, nominally at 25 °C; higher is more soluble.
Vapor pressure is log10 of mmHg; the set covers 15 to 30 °C, mostly 20 to 25 °C.
fu is the fraction unbound in human plasma, from 0 to 1.
Clint is human hepatic intrinsic clearance in µL/min per million cells; 0 means that no clearance was seen.
Cells with "–" have no entry in this list.

structure (SMILES),MP (°C),bp (°C),logP (octanol/water),water solubility (log10 mol/L),vapor pressure (log10 mmHg),fraction unbound,hepatic Clint (µL/min/10^6 cells)
Clc1cc(Oc2c(Cl)cc(Cl)c(Cl)c2Cl)c(Cl)c(Cl)c1Cl,205,–,–,-10.1,-7.075,–,–
CC(c1ncncc1F)C(O)(Cn1cncn1)c1ccc(F)cc1F.CC1(C)C2CCC1(CS(=O)(=O)O)C(=O)C2 (stereo not drawn),–,–,1.73,-2.367,-9.694,–,–
Cc1ccc2oc(=O)ccc2c1,–,–,–,-2.129,-3.291,–,–
CCC(O)COC1CCCCC1C(C)(C)C (stereo not drawn),-28.5,–,–,-3.699,-1.333,–,–
CCOC(=O)C(C)=CC(=O)OC,-12,227.8,–,-2.383,-1.324,–,–
Nc1nc(=O)c2nc(CNc3ccc(C(=O)N[C@@H](CCC(=O)O)C(=O)O)cc3)cnc2[nH]1,–,–,-2.61,-5.44,-10,–,0
CCC(C)=CCCC(C)=CC#N,–,–,–,-3.59,-1.894,–,–
C=C(C)C(=O)OCCN1CCOC1,–,–,0.7,–,-1.824,–,–
Cc1ccc(N(CC(C)O)CC(C)O)cc1 (stereo not drawn),112,–,2.1,–,-5.577,–,–
CCCS(=O)(=O)Nc1ccc(F)c(C(=O)c2cn(C(=O)c3c(Cl)cccc3Cl)c3ncc(-c4ccc(Cl)cc4)cc23)c1F,191,–,–,-6.458,–,–,–
O=C1Cc2cc(CCN3CCN(c4nsc5ccccc45)CC3)c(Cl)cc2N1,288,–,3.8,–,–,–,–
C[C@@H]1C[C@H]2C3C[C@H](F)C4=CC(=O)C=CC4(C)[C@@]3(F)[C@@H](O)CC2(C)[C@@]1(O)C(=O)COC(=O)C(C)(C)C (some centres not stated),219,–,–,-4.665,–,–,–
CC(C=O)Cc1ccc(C(C)(C)C)cc1 (stereo not drawn),-4.75,–,4.2,-3.792,-2.446,–,–
CO[C@@]1(NC(=O)CSCC#N)C(=O)N2C(C(=O)O)=C(CSc3nnnn3C)CS[C@@H]21,–,–,–,-2.339,–,0.1909,–
O=S(=O)([O-])c1cccc(/N=N/c2ccc(/N=N/c3ccc(N(CCO)CCO)cc3)c3ccccc23)c1.[Na+],–,–,0.1,-3.97,–,–,–
C=CC(=O)OCCCCCCc1ccc(OC(=O)[C@H]2CC[C@H](C(=O)Oc3ccc(CCCCCCOC(=O)C=C)cc3)CC2)cc1,85.6,–,–,-7.158,-9.319,–,–
CCOCCCNS(=O)(=O)c1ccc(Oc2cc(O)c3c(c2N)C(=O)c2ccccc2C3=O)cc1,147,–,1.88,-4.787,-14.64,–,–
O=C(Nc1ccc2c([O-])c(/N=N/c3ccc(-c4ccc(/N=N/c5c(S(=O)(=O)[O-])cc6cc(S(=O)(=O)[O-])cc(O)c6c5[O-])c([O-])c4)cc3[O-])c(S(=O)(=O)[O-])cc2c1)c1ccccc1.[Cu+2].[Cu+2].[Na+].[Na+].[Na+],254,–,–,-3.631,–,–,–
CC(C)Cc1ccccc1,–,–,4.68,-4.12,0.286,–,–
CCC([O-])=C1C(=O)CC(C(=O)[O-])CC1=O.[Ca+2] (stereo not drawn),–,–,-2.9,-3.308,–,–,–
C[C@H]1CN(C[C@H](Cc2ccccc2)C(=O)NCC(=O)O)CC[C@@]1(C)c1cccc(O)c1,–,–,–,-4.707,–,0.15,–

Excerpt, the opening 2 entries:

structure (SMILES),MP (°C),bp (°C),logP (octanol/water),water solubility (log10 mol/L),vapor pressure (log10 mmHg),fraction unbound,hepatic Clint (µL/min/10^6 cells)
Clc1cc(Oc2c(Cl)cc(Cl)c(Cl)c2Cl)c(Cl)c(Cl)c1Cl,205,–,–,-10.1,-7.075,–,–
CC(c1ncncc1F)C(O)(Cn1cncn1)c1ccc(F)cc1F.CC1(C)C2CCC1(CS(=O)(=O)O)C(=O)C2 (stereo not drawn),–,–,1.73,-2.367,-9.694,–,–